Test results as given in patent publication US8383697B2 (priority 2009, dated 2013).

Columns and labels:
rats = details: cited from earlier work
[1] = at 22° C.; cited from earlier work
[2] = Thermal stability of initiators by dynamic DSC; details: dynamic DSC up to 300° C.

For CCC(C)(OO)OOC(C)(CC)OO (stereo not drawn), the “Rat Oral LD50” value (rats) is given as 484 mg/kg, the “Water Solubility” value [1] is given as 0.1-0.5 g/100 mL at 22 °C and the “Thermal stability (in words)” value [2] is given as “most thermally stable”.

Some compounds may have been tested in ways that are not shown here.
